Assay results published in patent US9956243B2, “Combination treatment for acute myeloid leukemia (AML)” (Hoffmann-La Roche Inc., priority 2013, dated 2018).

Method: Female SCID beige mice (10/group), obtained from Charles River Laboratories (Wilmington, Del.) were used when they were approximately 8-12 weeks old and weighed approximately 20-25 grams. The health of the mice was assessed daily by gross observation and analyses of blood samples taken from sentinel animals housed on shared shelf racks. All animals were allowed to acclimate and recover from any shipping-related stress for a minimum of 72 hours prior to experimental use. Autoclaved water and irradiated food (5058-ms Pico Lab mouse chow, Purina Mills, Richmond, Ind.) were provided ad libitum, and the animals were maintained on a 12 hour light and dark cycle. Cages, bedding and water bottles were autoclaved before use and changed weekly. All animal experiments were conducted in accordance with the Guide for the Care and Use of Laboratory Animals, local regulations, and protocols approved by the Roche Animal Care and Use Committee in an AAALAC accredited facility.
It was then filtered thru a 0.22 micron filter into a septum sealed vial for intravenous administration. […] Stock cytarabine (Ara-C injection, 100 mg/ml) was diluted in sterile 0.9% sodium chloride to 44 mg/ml according to manufacturer's instructions and dosed at 200 mg/kg iv twice weekly.
Treatment duration was 3 weeks.
For increased life span (ILS) assessment, animal body weights were measured two to three times per week, and animals were monitored daily for any clinical signs of toxicity or excessive tumor burden (i.e. hind limb paralysis or morbidity). In addition, progression of disease was monitored by in vivo bioluminescent imaging (BLI) using IVIS® Spectrum system. For each BLI session, mice received 100 mg/kg D-luciferin (Caliper Life Sciences/Perkin-Elmer) via ip injections and were imaged at 20 min post luciferin injection at either a 5 s or a 10 s exposure time. Images were captured by the IVIS® Spectrum system and data were collected and analyzed with Living Image 4.2.0 software (Caliper Life Sciences, Hopkinton, Mass.). Total photon fluxes (ph/s) representing luciferase activity within each fixed region of interest (ROI) covering whole tumors of individual mice were determined. The actual images of mice are not disclosed herein.
Weight loss was graphically represented as percent change in mean group body weight, using the formula: ((W−W0)/W0)×100, where ‘W’ represents mean body weight of the treated group at a particular day, and ‘W0’ represents mean body weight of the same treated group at initiation of treatment.

[1] = compound I-B 437 mg/kg q7d iv, 10 mice/group

4-{[(2R,3S,4R,5S)-3-(3-Chloro-2-fluoro-phenyl)-4-(4-chloro-2-fluoro-phenyl)-4-cyano-5-(2,2-dimethyl-propyl)-pyrrolidine-2-carbonyl]amino}-3-methoxy-benzoic acid 1-mPEG-carbonyloxy-ethyl ester (mPEG, average MW, ˜2200) [compound I-B]
# of animals ≥20% body weight loss [1]: 0
% Change in Body Weight at Day 17 [1]: −2.8%
Mortality (compound I-B 437 mg/kg q7d iv, 10 mice/group, reason undetermined): 1
deaths after iv dosing (directly after iv dosing, undetermined cause (potentially technical)): sporadic deaths
